Tests used:
PC-3 cells = experiment: Antiproliferation assay (MTS), PC-3; format: cell-based; details: Homo sapiens, PC3, 72 hours of drug treatment
Description: (1) Antiproliferation Assay
PC-3, U-87 MG, HCC1954 and BT474 cell lines were purchased from the American Type Culture Collection (ATCC, USA). PC-3 was grown in F12K medium (GIBCO) containing 10% FBS. U-87 MG was grown in Eagle's minimum essential medium (MEM, Sigma) supplemented with nonessential amino acids, L-glutamine, sodium pyruvate, and 10% FBS. HCC1954 was grown in RPMI medium (GIBCO) containing 10% FBS. […] All cells were incubated in a humidified atmosphere containing 5% CO2 at 37° C.
Cell lines were inoculated to the wells of a 96-well culture plate with 1000-5000 cells per well. The compounds were prepared and used to treat cells with less than 1% DMSO. After 72 hours of drug treatment, the viability of each cell line was examined by CellTiter 96 Aqueous Non-Radioactive Cell Proliferation Assay (Promega). The living cells were detectable by conversion of MTS into aqueous, soluble formazan. MTS/PMS solution was freshly prepared and 20 μl of MTS/PMS solution was added to each well of the 96-well cultured plate. The assay plate was incubated for 3 hours and the absorbance at 490 nm was measured by EMax ELISA Reader (Molecular Devices). The IC50 values of compounds were determined after carrying out assays at eight serially diluted concentrations of each compound in triplicate, and are the mean of three separate determinations. The results were analyzed using linear regression software (GraphPad Prism 5; GraphPad Software Inc.).

A549 cells = experiment: Antiproliferation assay (MTS), A549; format: cell-based; details: Homo sapiens; A549, 72 hours of drug treatment

Compound: COc1cnc(-c2ccc(NC(=O)Nc3ccc(S(N)(=O)=O)cc3)cc2)nc1N1CCOCC1 [MTR-0283, 4-{3-[4-(5-Methoxy-4-morpholin-4-yl-pyrimidin-2-yl)-phenyl]-ureido}-benzenesulfonamide]
- IC50 (PC-3 cells): 283 ± 31 nM
- IC50 (A549 cells): 3720 ± 341 nM

Compound: COc1cnc(-c2ccc(NC(=O)Nc3ccc(C(=O)NCCCN(C)C)cc3)cc2)nc1N1CCOCC1 [MTR-0427, N-(3-Dimethylamino-propyl)-4-{3-[4-(5-methoxy-4-morpholin-4-yl-pyrimidin-2-yl)-phenyl]-ureido}-benzamide]
- IC50 (PC-3 cells): 125 ± 2 nM
- IC50 (A549 cells): 1800 ± 52 nM

Compound: CCOc1cnc(-c2ccc(NC(=O)Nc3ccc(N4CCN(S(C)(=O)=O)CC4)cc3)cc2)nc1N1CCOCC1 [MTR-0420, 1-[4-(5-Ethoxy-4-morpholin-4-yl-pyrimidin-2-yl)-phenyl]-3-[4-(4-methanesulfonyl-piperazin-1-yl)-phenyl]-urea]
- IC50 (PC-3 cells): 148 ± 2 nM
- IC50 (A549 cells): 234 ± 1 nM

Compound: CCOc1c(C(=O)N2CCOCC2)nc(-c2ccc(NC(=O)Nc3ccc(C(N)=O)cc3)cc2)nc1N1CCOCC1 [MTR-0364, 4-(3-{4-[5-Ethoxy-4-(morpholine-4-carbonyl)-6-morpholin-4-yl-pyrimidin-2-yl]-phenyl}-ureido)-benzamide]
- IC50 (PC-3 cells): 142 ± 14 nM
- IC50 (A549 cells): 462 ± 8 nM

Compound: CSc1c(-c2ccncc2)nc(-c2ccc(NC(=O)Nc3ccncc3)cc2)nc1N1CCOCC1 [MTR-0453, 1-[4-(5-Methylsulfanyl-4-morpholin-4-yl-6-pyridin-4-yl-pyrimidin-2-yl)-phenyl]-3-pyridin-4-yl-urea]
- IC50 (PC-3 cells): 56 ± 2 nM
- IC50 (A549 cells): 206 ± 1 nM

Compound: CSc1c(-c2cccnc2)nc(-c2ccc(NC(=O)Nc3cccnc3)cc2)nc1N1CCOCC1 [MTR-0464, 1-[4-(5-Methylsulfanyl-4-morpholin-4-yl-6-pyridin-3-yl-pyrimidin-2-yl)-phenyl]-3-pyridin-3-yl-urea]
- IC50 (PC-3 cells): 2.4 nM
- IC50 (A549 cells): 12 ± 0.8 nM

Compound: CSc1cnc(-c2ccc(NC(=O)Nc3ccc(S(N)(=O)=O)cc3)cc2)nc1N1CCOCC1 [MTR-0288, 4-{3-[4-(5-Methylsulfanyl-4-morpholin-4-yl-pyrimidin-2-yl)-phenyl]-ureido}-benzenesulfonamide]
- IC50 (PC-3 cells): 252 ± 27 nM
- IC50 (A549 cells): 3980 ± 275 nM

Compound: COc1cnc(-c2ccc(NC(=O)Nc3ccc(N4CCN(C)CC4)cc3)cc2)nc1N1CCOCC1 [MTR-0337, 1-[4-(5-Methoxy-4-morpholin-4-yl-pyrimidin-2-yl)-phenyl]-3-[4-(4-methyl-piperazin-1-yl)-phenyl]-urea]
- IC50 (PC-3 cells): 154 ± 6 nM
- IC50 (A549 cells): 457 ± 38 nM

Compound: COc1cnc(-c2ccc(NC(=O)Nc3ccc(C(=O)N4CCOCC4)cc3)cc2)nc1N1CCOCC1 [MTR-0382, 1-[4-(5-Methoxy-4-morpholin-4-yl-pyrimidin-2-yl)-phenyl]-3-[4-(morpholine-4-carbonyl)-phenyl]urea]
- IC50 (PC-3 cells): 19 ± 1 nM
- IC50 (A549 cells): 74 ± 5 nM

Compound: CCOc1cnc(-c2ccc(NC(=O)Nc3ccc(NS(C)(=O)=O)cc3)cc2)nc1N1CCOCC1 [MTR-0394, N-(4-{3-[4-(5-Ethoxy-4-morpholin-4-yl-pyrimidin-2-yl)-phenyl]-ureido}-phenyl)-methanesulfonamide]
- IC50 (A549 cells): 431 ± 10 nM

Compound: CCOC(=O)c1nc(-c2ccc(NC(=O)Nc3ccc(C(=O)N4CCN(C)CC4)cc3)cc2)nc(N2CCOCC2)c1OCC [MTR-0274, 5-Ethoxy-2-(4-{3-[4-(4-methyl-piperazine-1-carbonyl)-phenyl]-ureido}-phenyl)-6-morpholin-4-yl-pyrimidine-4-carboxylic acid ethyl ester]
- IC50 (PC-3 cells): 57 ± 2 nM
- IC50 (A549 cells): 135 ± 11 nM

Compound: CCOC(=O)c1nc(-c2ccc(NC(=O)Nc3ccc(C(=O)NCCN(C)C)cc3)cc2)nc(N2CCOCC2)c1OCC [MTR-0277, 2-(4-{3-[4-(2-Dimethylamino-ethylcarbamoyl)-phenyl]-ureido}-phenyl)-5-ethoxy-6-morpholin-4-yl-pyrimidine-4-carboxylic acid ethyl ester]
- IC50 (PC-3 cells): 86 ± 3 nM
- IC50 (A549 cells): 561 ± 30 nM

Compound: CCOc1cnc(-c2ccc(NC(=O)Nc3ccc(N4CCOCC4=O)cc3)cc2)nc1N1CCOCC1 [MTR-0325, 1-[4-(5-Ethoxy-4-morpholin-4-yl-pyrimidin-2-yl)-phenyl]-3-[4-(3-oxo-morpholin-4-yl)-phenyl]-urea]
- IC50 (PC-3 cells): 16 ± 1 nM
- IC50 (A549 cells): 53 ± 2 nM

Compound: COc1cnc(-c2ccc(NC(=O)Nc3cccc(NC(C)=O)c3)cc2)nc1N1CCOCC1 [MTR-0426, N-(3-{3-[4-(5-Methoxy-4-morpholin-4-yl-pyrimidin-2-yl)-phenyl]-ureido}-phenyl)-acetamide]
- IC50 (PC-3 cells): 282 ± 11 nM
- IC50 (A549 cells): 962 ± 58 nM

Compound: COc1cnc(-c2ccc(NC(=O)Nc3ccc(C(N)=O)cc3)c(F)c2)nc1N1CCOCC1 [MTR-0385, 4-{3-[2-Fluoro-4-(5-methoxy-4-morpholin-4-yl-pyrimidin-2-yl)-phenyl]-ureido}-benzamide]
- IC50 (PC-3 cells): 396 ± 6 nM
- IC50 (A549 cells): 361 ± 13 nM

Compound: COc1cnc(-c2ccc(NC(=O)Nc3ccc(N4CCOCC4=O)cc3)cc2F)nc1N1CCOCC1 [MTR-0406, 1-[3-Fluoro-4-(5-methoxy-4-morpholin-4-yl-pyrimidin-2-yl)-phenyl]-3-[4-(3-oxo-morpholin-4-yl)-phenyl]-urea]
- IC50 (PC-3 cells): 285 ± 5 nM
- IC50 (A549 cells): > 10000 nM

Compound: CSc1c(Cl)nc(-c2ccc(NC(=O)Nc3ccc(S(C)(=O)=O)cc3)cc2)nc1N1CCOCC1 [MTR-0387, 1-[4-(4-Chloro-5-methylsulfanyl-6-morpholin-4-yl-pyrimidin-2-yl)-phenyl]-3-(4-methanesulfonyl-phenyl)-urea]
- IC50 (PC-3 cells): 88 ± 3 nM
- IC50 (A549 cells): 148 ± 10 nM

Compound: CSc1c(-c2cccnc2)nc(-c2ccc(NC(=O)Nc3ccccc3)cc2)nc1N1CCOCC1 [MTR-0438, 1-[4-(5-Methylsulfanyl-4-morpholin-4-yl-6-pyridin-3-yl-pyrimidin-2-yl)-phenyl]-3-phenyl-urea]
- IC50 (PC-3 cells): 48 ± 1 nM
- IC50 (A549 cells): 116 ± 4 nM

Compound: CSc1c(Cl)nc(-c2ccc(NC(=O)Nc3ccc(S(N)(=O)=O)cc3)cc2)nc1N1CCOCC1 [MTR-0358, 4-{3-[4-(4-Chloro-5-methylsulfanyl-6-morpholin-4-yl-pyrimidin-2-yl)-phenyl]-ureido}-benzenesulfonamide]
- IC50 (PC-3 cells): 34 ± 1 nM
- IC50 (A549 cells): 144 ± 1 nM

Compound: CSc1c(-c2ccncc2)nc(-c2ccc(NC(N)=O)cc2)nc1N1CCOCC1 [MTR-0388, [4-(5-Methylsulfanyl-4-morpholin-4-yl-6-pyridin-4-yl-pyrimidin-2-yl)-phenyl]-urea]
- IC50 (PC-3 cells): 136 ± 3 nM
- IC50 (A549 cells): 250 ± 8 nM

Compound: COc1c(Cl)nc(-c2ccc(NC(=O)Nc3ccncc3)cc2)nc1N1CCOCC1 [MTR-0476, 1-[4-(4-Chloro-5-methoxy-6-morpholin-4-yl-pyrimidin-2-yl)-phenyl]-3-pyridin-4-yl-urea]
- IC50 (PC-3 cells): 15 nM
- IC50 (A549 cells): 137 ± 6 nM

Compound: CCOc1c(C(=O)N2CCCCC2)nc(-c2ccc(NC(=O)Nc3ccccc3)cc2)nc1N1CCOCC1 [MTR-0142, 1-{4-[5-Ethoxy-4-morpholin-4-yl-6-(piperidine-1-carbonyl)-pyrimidin-2-yl]-phenyl}-3-phenyl-urea]
- IC50 (PC-3 cells): 416 ± 90 nM
- IC50 (A549 cells): 488 ± 56 nM

Compound: CCOc1cnc(-c2ccc(NC(=O)Nc3ccc(S(C)(=O)=O)cc3)cc2)nc1N1CCOCC1 [MTR-0424, 1-[4-(5-Ethoxy-4-morpholin-4-yl-pyrimidin-2-yl)-phenyl]-3-(4-methanesulfonyl-phenyl)-urea]
- IC50 (PC-3 cells): 51 ± 1 nM
- IC50 (A549 cells): 118 ± 2 nM

Compound: COc1cnc(-c2ccc(NC(=O)Nc3ccc(N4CCOCC4)cc3)cc2)nc1N1CCOCC1 [MTR-0261, 1-[4-(5-Methoxy-4-morpholin-4-yl-pyrimidin-2-yl)-phenyl]-3-(4-morpholin-4-yl-phenyl)-urea]
- IC50 (PC-3 cells): 111 ± 2 nM
- IC50 (A549 cells): 512 ± 25 nM

Compound: COc1cnc(-c2ccc(NC(=O)Nc3ccc(C(N)=O)cc3)cc2F)nc1N1CCOCC1 [MTR-0407, 4-{3-[3-Fluoro-4-(5-methoxy-4-morpholin-4-yl-pyrimidin-2-yl)-phenyl]-ureido}-benzamide]
- IC50 (PC-3 cells): 386 ± 16 nM
- IC50 (A549 cells): > 10000 nM

Compound: COc1cnc(-c2ccc(NC(=O)Nc3ccc(N4CCOCC4)c(F)c3)cc2)nc1N1CCOCC1 [MTR-0242, 1-(3-Fluoro-4-morpholin-4-yl-phenyl)-3-[4-(5-methoxy-4-morpholin-4-yl-pyrimidin-2-yl)-phenyl]-urea]
- IC50 (PC-3 cells): 286 ± 1 nM
- IC50 (A549 cells): 748 ± 140 nM

Compound: COc1cnc(-c2ccc(NC(=O)Nc3ccc(S(=O)(=O)N4CCOCC4)cc3)cc2)nc1N1CCOCC1 [MTR-0471, 1-[4-(5-Methoxy-4-morpholin-4-yl-pyrimidin-2-yl)-phenyl]-3-[4-(morpholine-4-sulfonyl)-phenyl]-urea]
- IC50 (PC-3 cells): 34 ± 2 nM

Compound: COc1cnc(-c2ccc(NC(=O)Nc3ccncc3)cc2)nc1N1CCOCC1 [MTR-0472, 1-[4-(5-Methoxy-4-morpholin-4-yl-pyrimidin-2-yl)-phenyl]-3-pyridin-4-yl-urea]
- IC50 (PC-3 cells): 226 ± 19 nM

Compound: CCOC(=O)c1nc(-c2ccc(NC(=O)Nc3ccc(C(=O)N4CCOCC4)cc3)cc2)nc(N2CCOCC2)c1OCC [MTR-0278, 5-Ethoxy-2-(4-{3-[4-(morpholine-4-carbonyl)-phenyl]-ureido}-phenyl)-6-morpholin-4-yl-pyrimidine-4-carboxylic acid ethyl ester]
- IC50 (PC-3 cells): 39 nM

Compound: CSc1c(Cl)nc(-c2ccc(NC(=O)Nc3ccc4oc(=O)[nH]c4c3)cc2)nc1N1CCOCC1 [MTR-0372, 1-[4-(4-Chloro-5-methylsulfanyl-6-morpholin-4-yl-pyrimidin-2-yl)-phenyl]-3-(2-oxo-2,3-dihydro-benzooxazol-5-yl)-urea]
- IC50 (A549 cells): 332 ± 20 nM
